AlphaSeq binding of Ab-95 light chain variants to a spike HR2 peptide

Antigen: PDVDLGDISGINAS, a 14-residue peptide of the SARS-CoV-2 spike HR2 region.

Parent scFv Ab-95: VH joined to VL by three GGGGS repeats. Changes lie in the light chain CDRs alone.
VH: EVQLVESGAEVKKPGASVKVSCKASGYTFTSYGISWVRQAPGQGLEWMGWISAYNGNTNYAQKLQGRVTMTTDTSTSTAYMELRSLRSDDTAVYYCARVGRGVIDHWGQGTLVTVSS
VL: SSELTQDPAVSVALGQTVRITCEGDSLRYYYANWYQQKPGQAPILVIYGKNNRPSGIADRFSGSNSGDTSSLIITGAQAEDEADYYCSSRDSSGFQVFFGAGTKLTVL

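Phage display of a naive human antibody library on the peptide gave the parent. Library AAYL52 holds single substitutions and randomly drawn double and triple substitutions in the CDRs. The assay is AlphaSeq: two haploid yeast populations carry antibody and antigen on their surface. After mating in shaken culture at 30 °C for 16 h, diploids were selected and their barcode pairs sequenced. Scores were corrected for input abundance and mapped to Kd with protein pairs of known affinity run in the same pool. Each pool was mated in three replicate cultures.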

Changes read parent residue, position, new residue, counted from the first residue of the VL shown.
The read-out is the apparent dissociation constant on a log10 scale (nM): the lower, the stronger.
Replicates are averaged; those with no signal do not enter the mean.
Where no diploid with the target was found in any replicate, the entry reads "not detected": below detection, most likely a poor binder, though not proof of it.
Nonspecific signal, from three strains lacking the peptide, appeared in 28% of pairings of library AAYL52, centred on 3.91 (5% of these signals below 2.90); values are not corrected for it.
In this assay the parent's reference entry averaged 2.31; its copy inside this library read 2.25.

mean log10 Kd (nM) | seen in | changes
5.21 | 2 of 3 | A32N/N33A/K50Y
not detected | 0 of 3 | R28L/G49P/S93K
2.42 | 3 of 3 | E23H/D25L/S55D
4.05 | 1 of 3 | P54Q/R90M/F95N
2.44 | 3 of 3 | K50Q/N51M/S93A
4.16 | 1 of 3 | S26Y/R53Y/Q96N
4.99 | 2 of 3 | N52T/R53N/P54H
1.42 | 3 of 3 | Y29D/N52E/S55Y
3.58 | 3 of 3 | S26P/N51G/P54I
4.99 | 2 of 3 | N33C/F98W
not detected | 0 of 3 | S26R/Y31V/D91H
4.22 | 1 of 3 | N33I/N52C/R53D
3.79 | 1 of 3 | E23V/D91S/V97H
1.82 | 3 of 3 | Y31D/P54F/S92Y
3.89 | 2 of 3 | Y29K/Y30F/G49H
4.16 | 3 of 3 | E23C/L27Q/Y29I
3.53 | 3 of 3 | S88I/S89I/S92Y
2.87 | 3 of 3 | Y29W/N52I/S88I
3.41 | 3 of 3 | D25L/Y29E/Y30W
3.54 | 1 of 3 | R28I/Y31I/G94E
4.24 | 3 of 3 | E23D/D25Q/G49A
2.68 | 3 of 3 | S26Y/Y31N/P54E
4.34 | 3 of 3 | G24L/Y31W/S55K
2.80 | 3 of 3 | S26I/Y30P/N52G
2.74 | 3 of 3 | K50R/R90K/D91M
4.34 | 3 of 3 | S26I/Y29V/F98M
not detected | 0 of 3 | Y31M/N33F/R53D
not detected | 0 of 3 | G24C/K50F/S88G
4.58 | 2 of 3 | G24M/S88A/R90H
3.26 | 3 of 3 | S26L/Y31D/R90Q
2.88 | 2 of 3 | G24L/S89W/Q96M
not detected | 0 of 3 | G24P/N52P/F95N
1.87 | 3 of 3 | L27K/Y29Q/N52E
3.58 | 2 of 3 | G24F/D91Y/F98R
4.66 | 2 of 3 | N33G/G94Y/Q96K
3.18 | 3 of 3 | N33E/S92T/F95A
2.99 | 3 of 3 | G24H/L27T/N52V
3.72 | 3 of 3 | P54T/Q96S
3.21 | 3 of 3 | D25H/Q96W
2.69 | 3 of 3 | Y31W/N52M/S92L
4.45 | 3 of 3 | S26Q/K50C/S89E
3.87 | 3 of 3 | G24K/Y30T/N51Q
5.13 | 1 of 3 | Y30W/A32H/F98D
3.65 | 3 of 3 | N52H/S92D/S93D
2.93 | 2 of 3 | Y29K/Y30L/N33Q
3.12 | 2 of 3 | R28K/S88F/S89G
2.36 | 3 of 3 | Y29D/S92F/S93A
2.77 | 3 of 3 | K50D/N52E/S89K
1.95 | 3 of 3 | E23L/Y31S/K50I
3.08 | 3 of 3 | A32T/R53H
2.91 | 3 of 3 | E23I/F95N
4.03 | 3 of 3 | Y29C/A32H/F98W
1.80 | 3 of 3 | Y31G/S55E/F98Q
4.55 | 1 of 3 | S26E/N52W/V97W
3.76 | 3 of 3 | Y31L/N52R/Q96F
3.31 | 3 of 3 | S55D/S88W/F95C
3.21 | 1 of 3 | G49F/R53V/S55W
3.05 | 3 of 3 | D25V/P54E/S89T
4.01 | 1 of 3 | E23T/N51Q/S92C
3.81 | 3 of 3 | K50T/N51P
1.97 | 3 of 3 | Y31N/S55P/F98G
not detected | 0 of 3 | L27I/G49M/V97K
4.03 | 1 of 3 | E23K/D91C/Q96K
not detected | 0 of 3 | R28V/G49K/N51D
3.16 | 2 of 3 | G49E/P54D
3.44 | 2 of 3 | N33Q/Q96A/V97M

Extract of 11 entries:

| changes | mean log10 Kd (nM) | seen in |
|---|---|---|
| G24K/Y30T/N51Q | 3.87 | 3 of 3 |
| D25V/P54E/S89T | 3.05 | 3 of 3 |
| E23C/L27Q/Y29I | 4.16 | 3 of 3 |
| S26E/N52W/V97W | 4.55 | 1 of 3 |
| A32T/R53H | 3.08 | 3 of 3 |
| P54Q/R90M/F95N | 4.05 | 1 of 3 |
| K50T/N51P | 3.81 | 3 of 3 |
| S26P/N51G/P54I | 3.58 | 3 of 3 |
| N33I/N52C/R53D | 4.22 | 1 of 3 |
| E23I/F95N | 2.91 | 3 of 3 |
| D25L/Y29E/Y30W | 3.41 | 3 of 3 |

Data: MIT Lincoln Laboratory AlphaSeq set, Engelhart et al. 2022, doi:10.1038/s41597-022-01779-4, as distributed in FLAb.